## scFv variants of Ab-95 (light chain) against a SARS-CoV-2 spike peptide

Binding partner: SARS-CoV-2 spike HR2 peptide, sequence PDVDLGDISGINAS.

The variants keep the heavy chain, the linker and the frameworks of Ab-95 (scFv order VH, a (GGGGS)3 linker, VL).
VH: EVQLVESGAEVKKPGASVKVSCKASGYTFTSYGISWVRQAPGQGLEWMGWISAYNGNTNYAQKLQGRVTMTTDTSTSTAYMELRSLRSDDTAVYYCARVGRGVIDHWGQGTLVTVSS
VL: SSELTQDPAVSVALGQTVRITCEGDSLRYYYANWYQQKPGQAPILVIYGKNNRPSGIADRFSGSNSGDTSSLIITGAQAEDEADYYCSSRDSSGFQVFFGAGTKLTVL

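The parent was found by panning a naive human phage display library on the peptide. Library AAYL52 holds single substitutions and randomly drawn double and triple substitutions in the CDRs. The assay is AlphaSeq: two haploid yeast populations carry antibody and antigen on their surface. Pairs that bind mate more often; barcode pairs of the diploids are counted by sequencing. Scores were corrected for input abundance and mapped to Kd with protein pairs of known affinity run in the same pool. There are three technical replicates.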

Variants are written as CDR1, CDR2 and CDR3 of the light chain (limits as in the source). Parent: EGDSLRYYYAN, GKNNRPS, SSRDSSGFQVF. This list gathers variants with a substitution at A32 (VL, numbered from residue 1). Numbers give log10(Kd / nM), so 0 is 1 nM and 3 is 1 µM. Smaller is tighter. "nd" means that the variant was in the library but no mating with the target was seen in that replicate; the authors take this as a sign of poor binding, and no number exists. Parent in this assay: reference entry 2.31, copy in this library 2.25.

For EGDSLRPYYMK / GKNNRPS / SSRDSSGFQVF, the assay gave 3.79, 3.66, nd. With EGDSLRYYYWN / GKNNRPS / KSRDSSGFQVA the result was nd, nd, 4.25. The variant EGDSLRYYYRN / GKNNRPS / SSCDSSGEQVF showed nd, 4.30, 3.99. With EGCSLRYYYFN / GKNNRLS / SSRDSSGFQVF the result was nd, 3.83, 3.91. For EGASLRYYYLN / GKNNRPS / SSRDSSGFQVD, the assay gave 4.28, nd, nd. For EGDSLRYYYIN / VKNNRPS / SSRTSSGFQVF, the assay gave 4.55, 3.48, nd. The variant EGDSLRYYYMN / GKNNRPS / SSRDSSGFQVF showed 2.41, 2.29, 2.28. The variant FGDSLRYYYYN / GKNNRPS / SSRDSSGFQKF showed nd, nd, nd.

The variant EGDSHRYYYCN / GKNNRPS / SSRDSSGFQVF gave 3.73, nd, 4.46. With EGDSLRYYYEN / GKNNRPS / SSRMSSDFQVF the result was 3.68, nd, nd. With EGDSLRYYSTN / GKNHRPS / SSRDSSGFQVF the result was 3.13, 2.90, 3.04. The variant EGDSLRYYYNN / GKNNRKS / KSRDSSGFQVF gave nd, nd, 4.46. The variant EGDSLRYQYYN / GKNNRPS / SSRDSHGFQVF gave 4.35, 4.57, nd. With EGDSMRYYYRN / GKNNRPS / SMRDSSGFQVF the result was 4.41, nd, nd. For EGDSLRYYYEN / GKNWRKS / SSRDSSGFQVF, the assay gave 5.26, nd, nd. The variant EGDILRYYDWN / GKNNRPS / SSRDSSGFQVF gave 5.25, 6.03, nd.

The variant EGDSLRYYYCN / GKNNRPS / SSRDSEGFEVF showed 3.34, 3.01, 3.54. With EGDVLRYYYGN / GKNNRPS / QSRDSSGFQVF the result was 3.61, 2.06, 2.62. With EGDSLRYYYET / KKNNRPS / SSRDSSGFQVF the result was 4.87, 4.63, nd. The variant EGDSLRYYYKN / GKRNRPS / SSRDSSGFEVF gave nd, nd, nd. With EGDSLRYYPRN / GKNNRPS / SSRDSSGFQVF the result was 3.40, 4.14, 3.45. For EGDSLRYYYYN / GKNNRPS / SSRDGSTFQVF, the assay gave nd, nd, nd. With EGDSLRYYYHN / GKNWRPS / SSRDSSGFQVF the result was 4.59, nd, 2.56. The variant EGDSLREYYEN / GKNNRPS / SVRDSSGFQVF showed 2.46, 2.78, 1.92.

With EGDSLRYYYKN / GKNNRPS / SSRDSSGFQVF the result was nd, 4.25, 2.75. The variant CGDSLRYYYRN / GKNNRPS / SSRDSSGFQVR showed nd, nd, nd. For EGDSLRYYYHN / GKNNRPS / SSRDSSGFQVC, the assay gave nd, 4.81, nd. For EGDSLRYYYDN / DKNNRPS / LSRDSSGFQVF, the assay gave nd, nd, nd. The variant DGDSLRYYYGN / GKNNAPS / SSRDSSGFQVF showed 5.60, nd, nd. With EGDSDRYYYQN / GKNNRPS / SSRDSSHFQVF the result was 3.78, 3.33, 4.50. With EGDSLLYYYMN / GKYNRPS / SSRDSSGFQVF the result was 4.08, 3.53, 3.44. For EGDSLRYYYVD / GKNLRPS / SSRDSSGFQVF, the assay gave nd, 4.49, nd.

The variant EGDSLRYYAEN / GKNNRDS / SSRDSSGFQVF showed nd, nd, nd. With EGDSMRYYYRN / GKNNYPS / SSRDSSGFQVF the result was 3.65, 5.41, 3.04.

Nonspecific signal, from three strains lacking the peptide, appeared in 28% of pairings of library AAYL52, centred on 3.91 (5% of these signals below 2.90); values are not corrected for it.

Source: Engelhart et al. 2022 (doi:10.1038/s41597-022-01779-4), MIT Lincoln Laboratory and A-Alpha Bio; data file from the FLAb repository.